Drawing on BindingDB's records for doi:10.1016/j.bmcl.2012.07.045 (Rhône-Poulenc Rorer, 2012), this text covers IC50 for one compound.

The structures appear in SMILES notation.

The assay addresses Tyrosine-protein kinase SYK (Homo sapiens) (UniProt P43405). The experiment in a line: Inhibition of human recombinant full-length Syk using poly-GT as substrate after 40 mins by radioactive filtration assay.

By IC50 is commonly meant the midpoint of a concentration-inhibition curve. As for `FC(F)(F)c1ccnc(Nc2cccc(-c3cccc(N4CCNCC4)c3)n2)c1`, the IC50 is 600 pM.
